# Measured values published in patent US20240307353A1, “JAK1 PATHWAY INHIBITORS FOR THE TREATMENT OF ASTHMA” (Incyte Corporation, priority 2023, published 2024).
# Biological target: human JAK1 (a.a. 837-1142) (Homo sapiens, UniProt P23458)
# Experiment: In vitro JAK kinase assay (HTRF), JAK1
# Type: biochemical
# Conditions: 1 mM ATP
structure (smiles),measurement,value
"CN(C)Cc1cc(F)cc(OC2CCN(CC(CC#N)n3cc(-c4ncnc5[nH]ccc45)cn3)CC2)c1 (single isomer, unassigned) [Compound 14, 4-(4-{3-[(dimethylamino)methyl]-5-fluorophenoxy}piperidin-1-yl)-3-[4-(7H-pyrrolo[2,3-d]pyrimidin-4-yl)-1H-pyrazol-1-yl]butanenitrile]",IC50,< 10 nM
